Experimental data from ChEMBL document CHEMBL4270596, “Discovery of a potent non-oxime reactivator of nerve agent inhibited human acetylcholinesterase” (2018).

Assays:
[1] = Stability of the compound in phosphate buffer up to 24 hrs
[2] = Stability of the compound in pH 7.4 phosphate buffer measured over 24 hrs by LC-MS analysis; conditions: pH 7.4, 24 h
[3] = Stability of the compound in pH 7.4 phosphate buffer measured over 24 hrs by 1H-NMR analysis; conditions: pH 7.4, 24 h

## CCOP(=O)(OCC)Oc1ccc(N)cc1CN1CCCC1
[1]
  Stability: Stable

## Cl.Cl.Nc1ccc(O)c(CN2CCCC2)c1
[2]
  Stability: Stable
[3]
  Stability: Stable
